This is an account of results in article PMC6930500, “Structure–Activity Relationships of 7-Substituted Dimethyltyrosine-Tetrahydroisoquinoline Opioid Peptidomimetics” (Molecules, 2019).

Sequences of proteins named here, by UniProt entry; tags and fusion partners are left off.
UniProt P35372, whole entry: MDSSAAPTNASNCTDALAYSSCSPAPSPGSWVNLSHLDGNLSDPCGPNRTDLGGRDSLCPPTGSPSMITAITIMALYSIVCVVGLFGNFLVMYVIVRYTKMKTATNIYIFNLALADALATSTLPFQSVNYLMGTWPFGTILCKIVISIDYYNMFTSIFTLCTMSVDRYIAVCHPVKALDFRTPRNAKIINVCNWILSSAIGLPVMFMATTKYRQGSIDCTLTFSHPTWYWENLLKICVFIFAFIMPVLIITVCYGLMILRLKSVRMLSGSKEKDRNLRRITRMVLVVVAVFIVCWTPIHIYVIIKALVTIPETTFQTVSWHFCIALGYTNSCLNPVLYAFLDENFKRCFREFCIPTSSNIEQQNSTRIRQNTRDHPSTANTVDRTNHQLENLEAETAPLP
UniProt P41143, whole entry: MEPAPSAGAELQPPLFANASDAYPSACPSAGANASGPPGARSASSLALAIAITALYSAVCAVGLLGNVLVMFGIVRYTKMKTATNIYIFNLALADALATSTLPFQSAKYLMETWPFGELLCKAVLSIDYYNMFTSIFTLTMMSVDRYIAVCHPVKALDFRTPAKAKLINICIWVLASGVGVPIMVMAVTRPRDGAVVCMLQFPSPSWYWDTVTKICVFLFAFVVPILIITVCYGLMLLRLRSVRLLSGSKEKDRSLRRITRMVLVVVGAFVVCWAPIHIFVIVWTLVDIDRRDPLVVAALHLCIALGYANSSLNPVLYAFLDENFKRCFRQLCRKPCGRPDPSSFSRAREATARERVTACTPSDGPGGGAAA

Broadly, the pEC50 is −log10 of the EC50, conventionally taken in molar units. Broadly, the pKi is the Ki on a negative log10 scale, so that one unit is a factor of ten.

For assay [1], the target named is T1, human MOR (Homo sapiens, UniProt P35372). Put plainly: [35S]-GTPγS binding stimulation, MOR. It counts as biochemical. To be noted: mean (SEM), * n = 2. Here is the method: (§1) Each novel compound was evaluated for binding to and stimulation of KOR, MOR, and DOR. Binding affinity (Ki) was determined by competitive displacement of [^3H]-diprenorphine, a non-selective opioid receptor antagonist with similar affinity for each of the three receptors. Potency (EC50) and efficacy, expressed as percent stimulation compared to a standard agonist at each receptor, were determined by a [^35S]-GTPγS binding assay.
(§2) Membranes prepared from transfected Chinese Hamster Ovary cells stably expressing human KOR, human MOR, or human DOR were used for all assays. […] Protein concentration was determined via Pierce BCA protein assay kit using bovine serum albumin as the standard.
(§3) Agonist stimulation of KOR, MOR, and DOR by all test compounds was determined by [^35S]-guanosine 5′-O-[γ-thio]triphosphate ([^35S]-GTPγS) binding assays as previously reported. […] Basal stimulation was determined by incubation in the absence of any ligand. […] The radioactivity remaining on the filters was then quantified by liquid scintillation counting after saturation with EcoLume liquid scintillation cocktail in a Perkin-Elmer Microbeta 2450. […] Percent stimulation and EC50 values were determined via nonlinear regression analysis using GraphPad Prism software from at least three separate assays performed in duplicate. Efficacy is expressed as percent stimulation relative to standard agonists.
A general note: Binding of GTPγS marks nucleotide exchange on a G protein.

Assay [2] concerns the target T2, human KOR (Homo sapiens, UniProt P41145). Description: [3H]-diprenorphine competitive displacement binding, KOR. The conditions noted are these: read-out: Ki KOR; membranes from CHO cells expressing human KOR; mean (SEM), n>=3 in duplicate. Here is the method: as §1
(§4) Membranes prepared from transfected Chinese Hamster Ovary cells stably expressing human KOR, human MOR, or human DOR were used for all assays. Cells were grown to confluence at 37 °C in 5% CO2 in 1:1 DMEM:F12 media with 10% v/v fetal bovine serum and 5% v/v penicillin/streptomycin. […] Protein concentration was determined via Pierce BCA protein assay kit using bovine serum albumin as the standard.
(§5) Binding affinities for all test compounds at KOR, MOR, and DOR were determined by competitive displacement of [^3H]-diprenorphine as previously reported. […] Nonspecific binding was determined using the opioid antagonist naloxone (10 µM), and total binding was determined using vehicle in the absence of competitive ligand. […] The radioactivity remaining on the filters was then quantified by liquid scintillation counting after saturation with EcoLume liquid scintillation cocktail in a Microbeta 2450 (Perkin-Elmer, Waltham, MA, USA). […]

Assay [3] deals with T3, human DOR (Homo sapiens, UniProt P41143). Description: [35S]-GTPγS binding stimulation, DOR. The format is biochemical. The conditions noted are these: mean (SEM), * n = 2. Here is the method: as §1, §2, §3
The target in assay [4] is T2, human KOR. Put plainly: [35S]-GTPγS binding stimulation, KOR. It counts as biochemical. The conditions noted are these: mean (SEM). Here is the method:
as §1, §2, §3

The target in assay [5] is T3, human DOR. Description: [3H]-diprenorphine competitive displacement binding, DOR. The conditions noted are these: read-out: Ki DOR; membranes from CHO cells expressing human DOR; mean (SEM), n>=3 in duplicate. The method, then:
as §1, §4, §5

For assay [6], the target named is T1, human MOR. Description: [3H]-diprenorphine competitive displacement binding, MOR. To be noted: read-out: Ki MOR; membranes from CHO cells expressing human MOR; mean (SEM), n>=3 in duplicate. The method, then: as §1, §4, §5

Molecules are shown by their SMILES. pEC50, pKi: −log10 of the molar value.

Take `Cc1cc(O)cc(C)c1C[C@H](N)C(=O)N1CCc2ccc(Cc3ccccc3)cc2C1`: the pEC50 was 7.17 on human MOR [1] (read-out: EC50 MOR, CHO-human MOR membranes, dns = does not stimulate, average maximal stimulation <10% at up to 10 µM); 8.24 at human DOR [3] (read-out: EC50 DOR, CHO-human DOR membranes, dns = does not stimulate, average maximal stimulation <10% at up to 10 µM); 7.01 on human KOR [4] (read-out: EC50 KOR, CHO-human KOR membranes, * n = 2, dns = does not stimulate, average maximal stimulation <10% at up to 10 µM). Also, the “% Stimulation MOR” value at human MOR [1] (versus 10 µM standard agonist DAMGO, dns = average maximal stimulation <10% at up to 10 µM) is 39 (4) %. The pKi was 8.64 at human KOR [2], 8.66 at human DOR [5] and 8.28 on human MOR [6]. Further, the “% Stimulation DOR” value at human DOR [3] (versus 10 µM standard agonist DPDPE, dns = average maximal stimulation <10% at up to 10 µM) is reported as 20 (3) %. The “% Stimulation KOR” value on human KOR [4] (versus 10 µM standard agonist U69,593, dns = average maximal stimulation <10% at up to 10 µM) was 82 (6) %.
